Screens as filed in PubChem BioAssay.
Hits are enriched below; roughly 0.94% of the tested compounds scored in any of these assays.
Exocytosis inh = lytic granule exocytosis inhibition; TALL-104 LAMP-1 surface exposure, flow cytometry; cells stimulated with thapsigargin and PMA; inhibition, % at 10 µM; hit rate 0.66% among 360,000;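 active means inhibition above about 55%, limit read from the data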
Yeast UUG start-1 = modulators of start codon recognition fidelity in yeast. S. cerevisiae UUG-firefly luciferase reporter, luminescence/redox ratio. activity score, % at 18.7 µM. 0.13% of 350,000 active. AID 602363;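 active = replicate mean at a twofold rise or more, about +100% in these data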;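 also: firefly luciferase made from a UUG start codon reports start codon fidelity; reporter light over untreated wells divided by growth signal over untreated wells; some hits fall short of that in this replicate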
pCIP destab = compounds decreasing mouse p/CIP protein stability | Q05BA5 | F442A p/CIP-EGFP cells, EGFP fluorescence, 16 h | decrease of EGFP signal, % at 10 µM | hit rate 0.01% among 290,000;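 active means EGFP signal decrease of at least 30% at 10 µM or well 3 SD below plate mean, unless failing retest; inactive means the rest, including hits failing retest or dose response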
PKA-R2B activ = PKA-R2B complex activation. P22694+P31323. PKA-R2B holoenzyme dissociation, Cy5-IP20 fluorescence polarization; R2B truncated from residue 108, S112A mutant; 0% DMSO only, 100% 113 µM cGMP. activation, % at 11.4 µM. hit rate 0.079% among 340,000;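 active means activation above a cutoff set at the mean over all compounds plus 3 SD, cut at about 18% in these data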;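 further: higher means more holoenzyme dissociation and a rise in polarization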
ABCB6 inh 2 = inhibitors of human ABC transporter ABCB6 | Q9NP58 | K562-ABCB6 porphyrin accumulation, flow cytometry, 1 h; active compounds read low | fluorescence ratio to DMSO, % at 10 µM | hit rate 0.19% among 360,000 | AID 602162;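 active means fluorescence ratio to DMSO below 75%, the collection mean minus 3 SD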;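 further: signal is porphyrin accumulated inside mitochondria; lower ratio means ABCB6 inhibition with less porphyrin fluorescence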
PKA-R1A act = PKA-R1A complex activation; P00514+P68181; PKA-R1A dissociation, Cy5-IP20 fluorescence polarization; scaled: DMSO 0%, 113 µM cGMP 100%; activation, % at 11.4 µM; hit rate 0.083% among 340,000; AID 504707;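 active means percent activation above the mean of all tested compounds plus 3 SD, cut at about 19% in these data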;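 further: higher means more PKAc released from R1A so a rise in polarization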
Yeast UUG start-2 = yeast start codon fidelity modulation; shares compounds with Yeast UUG start-1; activation, % at 38 µM; AID 652061; S. cerevisiae UUG-start firefly luciferase, luminescence, 4 h; 100% means double the DMSO signal; 540 tested, under 10 active;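 active means signal increase whose fitted curve reaches an absolute level of 40 at a concentration under 10 µM; inactive means activity opposite to the expected increase, or the rest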
Numbers stand for hits; – = inactive; · = not tested or not shown.

SMILES	Exocytosis inh	Yeast UUG start-1	pCIP destab	PKA-R2B activ	ABCB6 inh 2	PKA-R1A act	Yeast UUG start-2
COCC(=O)Nc1ccc2c(c1)OC[C@@H](C)N(C(=O)COC)C[C@@H](C)[C@@H](OC)CN(C)C2=O	·	197	·	·	·	·	–
CO[C@@H]1CN(C)C(=O)c2ccc(NC(=O)c3ccccc3F)cc2OC[C@@H](C)N(C(C)=O)C[C@@H]1C	·	–	·	·	·	·	·
COCC(=O)Nc1ccc2c(c1)C(=O)N(C)C[C@@H](OC)[C@@H](C)CN(Cc1ccccc1F)[C@@H](C)CO2	·	180	·	·	·	·	–
COCC(=O)Nc1ccc2c(c1)C(=O)N(C)C[C@@H](OC)[C@H](C)CN(Cc1ccccc1F)[C@H](C)CO2	·	–	·	·	·	·	·
CO[C@@H]1CN(C)C(=O)c2ccc(NC(=O)c3ccccc3F)cc2OC[C@H](C)N(C(C)=O)C[C@@H]1C	·	123	·	·	·	·	–
COCC(=O)Nc1ccc2c(c1)OC[C@@H](C)N(C(=O)c1cnccn1)C[C@@H](C)[C@@H](OC)CN(C)C2=O	·	156	·	·	·	·	–
CO[C@@H]1CN(C)C(=O)c2ccc(NS(=O)(=O)c3cn(C)cn3)cc2OC[C@@H](C)N(Cc2cccc(F)c2)C[C@H]1C	·	–	·	·	·	·	·
COC(C#CCCN(C)C)(c1ccccc1)c1ccccc1	–	·	–	–	–	–	–
CCOC(=O)Cn1nc(C)n(-c2cccc(Cl)c2)c1=O	–	223	–	–	–	–	–
CCOC(=O)Cn1nc(C)n(-c2ccc(Cl)cc2)c1=O	–	·	–	–	–	–	·
O=C(C[C@@H]1CC[C@H](NS(=O)(=O)c2cccc(F)c2)[C@H](CO)O1)NCc1ccc2c(c1)OCO2	·	–	·	·	·	·	·
O=C(NCc1ccccn1)c1ccc(-c2ccccc2)cc1	–	·	–	–	–	–	·
O=C(NCc1ccccn1)c1c(-c2ccccc2)sc2ccccc12	–	62	·	–	–	–	–
O=C(/C=C/c1ccccc1)Nc1nc(-c2ccncc2)cs1	–	594	–	–	–	–	–
O=C(/C=C\c1ccco1)Nc1nc(-c2ccccc2)cs1	–	·	–	–	–	–	·
Cc1sc2nc(CN3CCOCC3)nc(N3CCC(C(N)=O)CC3)c2c1C	–	286	·	–	–	–	–
COc1ccc(-c2cc3c(c(-c4ccc(Oc5ccccc5)cc4)n2)[Si](C(C)C)(C(C)C)OC3)cn1	·	–	·	·	·	·	·
COc1ccccc1S(=O)(=O)N[C@H]1CC[C@@H](CCNC(=O)C2CC2)O[C@H]1CO	·	–	·	·	·	·	·
Cn1c(=O)[nH]c(=O)c2c1nc(Br)n2C/C=N/NC(=O)c1ccccc1	–	136	–	–	–	–	–
N#C/C(=C\Nc1ccc2c(c1)OCCO2)C(=O)NCc1ccco1	–	102	–	–	–	–	–
Cn1nc(CC(=O)Nc2ccc3c(c2)OCCO3)c2ccccc2c1=O	–	·	–	–	–	–	–
Cn1nc(CC(=O)NCc2cccc3ccccc23)c2ccccc2c1=O	–	–	–	–	–	–	·
Cn1nc(CC(=O)Nc2cccc(O)c2)c2ccccc2c1=O	·	·	·	·	·	·	–
Cn1c(C(=O)O)c(CC(=O)Nc2ccc3c(c2)OCCO3)c2ccccc21	–	–	–	–	–	–	·
Cc1ccc(NC(=O)Cc2nn(C)c(=O)c3ccccc23)cc1F	–	–	–	–	–	–	–
SMILES	Exocytosis inh	Yeast UUG start-1	pCIP destab	PKA-R2B activ	ABCB6 inh 2	PKA-R1A act	Yeast UUG start-2
C[C@H](CO)N1C[C@H](C)[C@H](CN(C)C(=O)NC2CCCCC2)OCCCC[C@H](C)Oc2ccc(NS(=O)(=O)c3cn(C)cn3)cc2C1=O	·	–	·	·	·	·	·
C[C@@H]1CN([C@H](C)CO)S(=O)(=O)c2ccc(C3=CCCC3)cc2O[C@@H]1CN(C)C(=O)C1CCOCC1	·	–	·	·	·	·	·
CC(=O)Nc1ccc(OC(F)(F)C(F)F)c(NC(C)=O)c1	–	–	–	–	–	–	·
C=C(C)C(=O)Nc1ccc(OC(F)(F)C(F)F)c(NC(=O)C(=C)C)c1	–	635	–	–	–	–	–
CN(C)C1=NC[C@H](Cc2ccccc2)N1CCCC1CCCC1	–	151	·	–	–	–	–
Cc1noc(C)c1S(=O)(=O)Nc1ccc2c(c1)C(=O)N([C@@H](C)CO)C[C@@H](C)[C@H](CN(C)S(=O)(=O)c1cn(C)cn1)OCCCC[C@H](C)O2	·	–	·	·	·	·	·
Cc1[nH]c2ccccc2c1/C=N/NC(=O)c1ccccc1	–	·	–	–	–	–	·
Cc1[nH]c2ccccc2c1/C=N/NC(=O)c1cc(-c2ccccc2)n[nH]1	–	169	–	·	–	·	–
COc1ccc2oc(C(=O)OCC(=O)c3ccc4c(c3)OCCO4)c(C)c2c1	–	668	–	–	–	–	–
COc1ccc2oc(C(=O)N(C)Cc3ccc4c(c3)OCCO4)c(C)c2c1	–	–	·	–	–	–	·
COc1ccccc1S(=O)(=O)N[C@@H]1CC[C@H](CCNC(=O)C2CCCC2)O[C@H]1CO	·	–	·	·	·	·	·
Cc1ccc(S(=O)(=O)N[C@H]2CC[C@H](CCNC(=O)C3CCCCC3)O[C@H]2CO)cc1	·	146	·	·	·	·	–
Cc1ccc(S(=O)(=O)N[C@@H]2CC[C@@H](CCNC(=O)C3CCCCC3)O[C@@H]2CO)cc1	·	–	·	·	·	·	·
CC(C)NC(=O)N[C@H]1CC[C@H](CCNC(=O)C2CCC2)O[C@H]1CO	·	136	·	·	·	·	–
COc1ccccc1S(=O)(=O)N[C@H]1CC[C@@H](CCNC(=O)C2CCCC2)O[C@@H]1CO	·	127	·	·	·	·	–
C[C@@H]1CN([C@H](C)CO)C(=O)c2cc(-c3cccc(C#N)c3)cnc2O[C@H]1CN(C)C(=O)C1CC1	·	–	·	·	·	·	·
C[C@H](CO)N1C[C@H](C)[C@@H](CN(C)C)Oc2ccc(NS(=O)(=O)c3ccc(F)cc3)cc2C1=O	·	–	·	·	·	·	·
CC(C)(C)c1ccc(C(=O)N2CCCCCC2=O)cc1	–	279	–	–	–	–	–
O=C1CCCCCN1C(=O)c1ccccc1	–	·	·	–	–	–	·
O=C(N[C@@H]1CC[C@@H](CCn2cc(C3CC3)nn2)O[C@H]1CO)c1cccnc1	·	–	·	·	·	·	·
Cc1nc(N2CCN(S(=O)(=O)c3ccccc3C#N)CC2)c2c(-c3ccccc3)csc2n1	–	141	·	–	–	–	–
COC(=O)c1cn(NC(=O)Cc2ccc(OC)c(OC)c2)c(=O)c2ccccc12	–	479	–	–	–	–	–
Cc1ccc(S(=O)(=O)N(C)C[C@@H]2OCCCC[C@H](C)Oc3ccc(NC(=O)Nc4ccc(F)cc4)cc3C(=O)N([C@@H](C)CO)C[C@@H]2C)cc1	·	–	·	·	·	·	·
O=C(NC1CCC1)[C@@H]1N[C@@H]2c3ccc(-c4cccc(F)c4)c(=O)n3C[C@@H]2[C@H]1CO	·	–	·	·	·	·	·
CCN(C(=O)c1cc(Cl)ccc1OC)c1ccccc1C	–	128	–	–	–	–	–
CCN(C(=O)c1cc(Cl)ccc1OC)c1ccccc1	–	–	–	–	–	–	·
